pEC50, pIC50, pKi: −log10 of the molar value.
What was measured:
[1] = biological target: T1, Kappa-type opioid receptor (Homo sapiens, UniProt P41145); assay: Displacement of [3H]-U69593 from human KOR expressed in CHO cell membrane assessed as inhibition constant incubated for 30 mins by liquid scintillation counting method
Mu-type opioid receptor [2] = biological target: T2, Mu-type opioid receptor (Rattus norvegicus, UniProt P33535); assay: Displacement of [3H]-DAMGO from rat MOR expressed in CHO cell membrane assessed as inhibition constant incubated for 30 mins by liquid scintillation counting method
[3] = biological target: Delta-type opioid receptor (Rattus norvegicus, UniProt P33533); assay: Displacement of [3H]-DPDPE from rat DOR expressed in CHO cell membrane assessed as inhibition constant incubated for 30 mins by liquid scintillation counting method
Mu-type opioid receptor [4] = biological target: T2, Mu-type opioid receptor; assay: Antagonist activity at rat MOR expressed in HEK293 cells coexpressing Glo-Sensor22F assessed as inhibition of forskolin-induced cAMP accumulation incubated for 15 mins by Microplate reader assay
[5] = biological target: T1, Kappa-type opioid receptor; assay: Agonist activity at human KOR expressed in HEK293 cells coexpressing Glo-Sensor22F assessed as inhibition of cAMP accumulation incubated for 15 mins by Microplate reader assay

COc1ccc2c3c1O[C@H]1[C@@]4(OC)C=C[C@@]5(C[C@@H]4C(=O)c4cccc(NC(=O)c6ccc(Cl)c(Cl)c6)c4)[C@@H](C2)N(CC2CC2)CC[C@]315
pKi [1]: 6.37 | pKi (Mu-type opioid receptor [2]): 6.18 | pKi [3]: < 5.00

COc1ccc2c3c1O[C@H]1[C@@]4(OC)C=C[C@@]5(C[C@@H]4C(=O)c4ccccc4)[C@@H](C2)N(CC2CC2)CC[C@]315
pKi (Mu-type opioid receptor [2]): 6.89 | pKi [3]: 6.11

COc1ccc2c3c1O[C@H]1[C@@]4(OC)C=C[C@@]5(C[C@@H]4C(=O)c4cccc(NC(=O)c6cnn(C)c6)c4)[C@@H](C2)N(CC2CC2)CC[C@]315
pKi [1]: 8.16 | pKi (Mu-type opioid receptor [2]): 7.12 | pKi [3]: 6.68

COc1ccc2c3c1O[C@H]1[C@@]4(OC)C=C[C@@]5(C[C@@H]4C(=O)c4cccc(NCc6ccccc6)c4)[C@@H](C2)N(CC2CC2)CC[C@]315
pKi [1]: 6.68 | pKi (Mu-type opioid receptor [2]): 7.00 | pKi [3]: 5.59

COc1ccc2c3c1O[C@H]1[C@@]4(OC)C=C[C@@]5(C[C@@H]4C(=O)c4cccc(NC(=O)c6ccc(C)c(C)c6)c4)[C@@H](C2)N(CC2CC2)CC[C@]315
pKi [1]: 7.34 | pKi (Mu-type opioid receptor [2]): 7.42 | pKi [3]: 5.51

COc1ccc2c3c1O[C@H]1[C@@]4(OC)C=C[C@@]5(C[C@@H]4C(=O)c4cccc(Nc6ccccc6)c4)[C@@H](C2)N(CC2CC2)CC[C@]315
pKi [1]: 5.63 | pKi (Mu-type opioid receptor [2]): 6.76 | pKi [3]: 5.16

COc1ccc2c3c1O[C@H]1[C@@]4(OC)C=C[C@@]5(C[C@@H]4C(=O)c4cccc(NC(=O)Cc6ccccc6)c4)[C@@H](C2)N(CC2CC2)CC[C@]315
pKi [1]: 7.36 | pKi (Mu-type opioid receptor [2]): 7.40 | pKi [3]: 6.68

COc1ccc(C(=O)Nc2cccc(C(=O)[C@H]3C[C@@]45C=C[C@]3(OC)[C@@H]3Oc6c(OC)ccc7c6[C@@]34CCN(CC3CC3)[C@@H]5C7)c2)cc1
pKi [1]: 7.48 | pKi (Mu-type opioid receptor [2]): 6.36 | pKi [3]: 6.07

COc1ccc2c3c1O[C@H]1[C@@]4(OC)C=C[C@@]5(C[C@@H]4C(=O)c4cccc(NC(=O)OCC(C)C)c4)[C@@H](C2)N(CC2CC2)CC[C@]315
pKi [1]: 7.44 | pKi (Mu-type opioid receptor [2]): 7.00 | pKi [3]: 6.51

COc1ccc2c3c1O[C@H]1[C@@]4(OC)C=C[C@@]5(C[C@@H]4C(=O)c4cccc(NC(=O)OCc6ccccc6)c4)[C@@H](C2)N(CC2CC2)CC[C@]315
pKi [1]: 7.99 | pKi (Mu-type opioid receptor [2]): 7.09 | pKi [3]: 6.62

COc1ccc2c3c1O[C@H]1[C@@]4(OC)C=C[C@@]5(C[C@@H]4C(=O)c4cccc(NC(=O)c6ccccc6)c4)[C@@H](C2)N(CC2CC2)CC[C@]315
pKi [1]: 8.07 | pKi (Mu-type opioid receptor [2]): 7.38 | pKi [3]: 5.98 | pIC50 (Mu-type opioid receptor [4]): 6.42 | pEC50 [5]: 8.51

COc1cccc(C(=O)Nc2cccc(C(=O)[C@H]3C[C@@]45C=C[C@]3(OC)[C@@H]3Oc6c(OC)ccc7c6[C@@]34CCN(CC3CC3)[C@@H]5C7)c2)c1
pKi [1]: 7.57 | pKi (Mu-type opioid receptor [2]): 6.28 | pKi [3]: 6.56

Reference: ChEMBL document CHEMBL6109111, “Structure-activity relationship analysis of meta-substituted N-cyclopropylmethyl-nornepenthones with mixed KOR/MOR activities” (Eur J Med Chem, 2025)
